Target: ABL1 (64-515) (Homo sapiens (Human), UniProt P00519)
Experiment: Caliper ABL1 (64-515) assay (microfluidic mobility shift)
Type: biochemical

By UniProt entry, the sequences of proteins in these tests, tags left out. Residues count along the entry.
UniProt P00519, 64-515: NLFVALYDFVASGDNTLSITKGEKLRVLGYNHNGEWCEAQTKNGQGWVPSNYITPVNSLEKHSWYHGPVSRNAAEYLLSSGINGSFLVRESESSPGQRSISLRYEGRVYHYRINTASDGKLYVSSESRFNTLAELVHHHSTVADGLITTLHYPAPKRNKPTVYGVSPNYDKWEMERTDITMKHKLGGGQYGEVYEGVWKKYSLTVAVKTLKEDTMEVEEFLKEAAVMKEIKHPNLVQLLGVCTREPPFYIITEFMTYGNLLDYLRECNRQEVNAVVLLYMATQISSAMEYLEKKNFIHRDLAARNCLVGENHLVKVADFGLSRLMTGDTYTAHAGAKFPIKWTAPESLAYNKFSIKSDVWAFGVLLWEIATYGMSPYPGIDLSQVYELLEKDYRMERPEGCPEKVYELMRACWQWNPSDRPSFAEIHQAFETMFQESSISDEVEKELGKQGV

SMILES: CC(C)(O)c1ncc(C(=O)Nc2ccc(OC(F)(F)F)cc2)cc1-c1cncnc1 [Example 66, 6-(2-Hydroxypropan-2-yl)-5-(pyrimidin-5-yl)-N-(4-(trifluoromethoxy)phenyl)nicotinamide]
- IC50: 9.3 nM

Source: patent publication US9315489B2, “Compounds and compositions for inhibiting the activity of ABL1, ABL2 and BCR-ABL1” (Novartis AG, priority 2012, dated 2016)
